## Antibody variant affinities, Ab-14 heavy chain, assay B

Values reported by Li et al. 2023, doi:10.1038/s41467-023-39022-2 (FLAb copy).

Target peptide (SARS-CoV-2 spike, HR2 region): PDVDLGDISGINAS

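This is the validation round: designs drawn from the data on random variants, tested in the same kind of assay. Several design methods are mixed in this list. The scFvs were displayed on barcoded MATa yeast, the peptide on MATalpha yeast. Binding brings cells together so that they mate, and sequencing counts the barcode pairs among the diploids. A regression on co-assayed BCL2-family reference pairs converts the normalised counts of each replicate to an apparent Kd. The assay was run in six technical replicates.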

Parent: Ab-14, a human scFv built as VH, the linker GGGGSGGGGSGGGGS, VL. Only the CDRs of the heavy chain vary.
VH: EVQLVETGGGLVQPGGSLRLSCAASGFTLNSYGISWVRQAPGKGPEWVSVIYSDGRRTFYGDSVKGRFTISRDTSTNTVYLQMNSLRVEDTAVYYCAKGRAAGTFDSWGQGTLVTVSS
VL: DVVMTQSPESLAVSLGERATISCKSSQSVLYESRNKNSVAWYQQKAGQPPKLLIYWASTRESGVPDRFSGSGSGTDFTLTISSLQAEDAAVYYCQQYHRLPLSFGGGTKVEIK

Each variant is given by its three heavy chain CDRs, as the data file delimits them; those of the parent are GFTLNSYGIS, VIYSDGRRTFYGDSVK, GRAAGTFDS. This list holds designs with more than six substitutions. Each Kd is an estimate from the mating assay, the geometric mean of the replicates in which the pair was seen; lower is stronger. Where no diploid with the target was found in any replicate, the entry reads "nd": below detection, most likely a poor binder, though not proof of it. A sequence measured in both rounds can read differently, since the two assays cover different ranges. Empty control strains, which show no peptide, gave a signal in 1% of pairings with all heavy chain designs; the median was 120 nM and 95% of these signals were weaker than 7.0 nM. No background was subtracted. The control count says in how many pairings with the empty strains this scFv gave a signal. Of ten entries with the parent sequence, four were seen in most replicates (averages 2.2 nM to 240 nM), three in one and three in none, so single entries are noisy. The authors' rule: three or more of the six replicates give a measured affinity, fewer mean a poor binder.

Variant GFSLDEYGIS | VIYADGRRTFYADSVK | GNSAGTFDF showed 3.4 nM (5 of 6 replicates; controls 0 of 18).
Variant GFDLDEYGIS | VIYADGRRTFYQDSVK | GNNAGTFDQ showed 610 pM (6 of 6 replicates; controls 0 of 18).
Variant GFNLDEYGIS | VIYADGRRTFYTDSVK | GEGAGTFDF showed 16 nM (6 of 6 replicates; controls 0 of 18).
Variant GFDLNEYGIS | VIYADGRRTFYADSVK | GEAAGFFDQ showed 2.5 nM (6 of 6 replicates; controls 0 of 18).
Variant GFGLDEYGIS | VIYADGRRTFYADSVK | GENAGTFDI showed 8.9 nM (6 of 6 replicates; controls 0 of 18).
Variant GFDLDEYGIS | VIYADGMRTFYADSVK | GTNAGTFLS showed 17 nM (4 of 6 replicates; controls 0 of 18).
Variant GFDLNEYGIS | VIYADGSRTFYSDSVK | GQTAGTFDQ showed 300 pM (6 of 6 replicates; controls 0 of 18).
Variant GFTLNSYGLS | VIYSDGRNSFYDDSVK | GQLEGTFDS showed nd (0 of 6 replicates; controls 1 of 18).
Variant GFDLNEYGIS | VIYADGKRTAYIDSVK | GHNAGTFDV showed 660 pM (6 of 6 replicates; controls 0 of 18).
Variant GFDLNEYGIS | VIYADGVRTAYTDSVK | GEVAGTFDT showed 400 pM (6 of 6 replicates; controls 0 of 18).
Variant GFNLDEYGIS | VIYADGRRTFYADSVK | GEVAGTFDT showed 130 pM (6 of 6 replicates; controls 0 of 18).
Variant GFDLNEYGIS | VIYADGMRTAYADDVK | GGNAGTFDT showed 44 pM (6 of 6 replicates; controls 0 of 18).
Variant GFDLDEYGIS | VIYADGMRTFYADSVK | GNIAGTFDS showed 350 pM (6 of 6 replicates; controls 0 of 18).
Variant GQDIEEYGIS | VIYADGMRTVYSDSVK | SGRTVAIDV showed nd (0 of 6 replicates; controls 0 of 18).
Variant GFDLNEYGIS | VIYADGSRTAYSDSVK | GNVAGTFDL showed 350 pM (6 of 6 replicates; controls 0 of 18).
Variant GFDIDEYGIS | VIYADGMRTFYTDSVK | GEQAGTFDA showed 9.3 nM (6 of 6 replicates; controls 0 of 18).
Variant GFDLDEYGIS | VIYADGMRTAYADKVK | GENAGTFDI showed 31 nM (1 of 6 replicates; controls 0 of 18).
Variant GFDLNEYGIS | VIYADGMRTAYADKVK | GENAGTFDT showed 350 pM (6 of 6 replicates; controls 0 of 18).
Variant GFDLEEYGIS | VIYADGMRTAYSDSVK | GENAGTFDV showed 640 pM (6 of 6 replicates; controls 0 of 18).
Variant GMDLNEYGIS | VIYADGQRRAYAANFK | GVNIDGFDL showed nd (0 of 6 replicates; controls 0 of 18).
Variant GFDLNEYGIS | VIYADGMRTAYVDSVK | GEVAGTFDQ showed 600 pM (6 of 6 replicates; controls 0 of 18).
Variant GFDLNEYGIS | VIYADGRRTAYRDSVK | GEAAGTFDQ showed 570 pM (6 of 6 replicates; controls 0 of 18).
Variant GFGLDEYGIS | VIYADGMRSNYANSVK | GYQAGVIVV showed nd (0 of 6 replicates; controls 0 of 18).
Variant GFDLNEYGIS | VIYADGRRTQYIDSVK | GNQAGTFDI showed 580 pM (6 of 6 replicates; controls 0 of 18).
Variant GFDLDEYGIS | VIYADGKRTAYSDSVK | GNVAGTFDI showed 390 pM (6 of 6 replicates; controls 1 of 18).
Variant GFSLNEYGIS | VIYADGRRTFYTDSVK | GTNAGTFDM showed 580 pM (6 of 6 replicates; controls 0 of 18).
Variant GFDLNEYGIS | VIYADGMRTQYIDSVK | GNEAGTFDV showed 440 pM (6 of 6 replicates; controls 0 of 18).
Variant GFILDEYGIS | VIYADGQRSAYKDSVK | GVDDATGFI showed nd (0 of 6 replicates; controls 0 of 18).
Variant GFNLDEYGIS | VIYADGKREAYANKVK | GEQGSFFST showed nd (0 of 6 replicates; controls 0 of 18).
Variant GFDLNEYGIS | VIYADGSRTAYADNVK | GENAGTFDV showed 260 pM (6 of 6 replicates; controls 0 of 18).
Variant GFDLNEYGIS | VIYADGVRTAYIDSVK | GTNAGTFDV showed 180 pM (6 of 6 replicates; controls 0 of 18).
Variant GFDLNEYGIS | VIYADGSRTAYADDVK | GNVAGTFDT showed 900 pM (6 of 6 replicates; controls 0 of 18).

A selection of 2 entries from above:

CDR-H1,CDR-H2,CDR-H3,Kd,seen in,signal with controls
GFDLDEYGIS,VIYADGRRTFYQDSVK,GNNAGTFDQ,610 pM,6 of 6,0 of 18
GFDLNEYGIS,VIYADGKRTAYIDSVK,GHNAGTFDV,660 pM,6 of 6,0 of 18